Experimental findings from ChEMBL document CHEMBL4811245, “Design, synthesis and biological evaluation of brain penetrant benzazepine-based histone deacetylase 6 inhibitors for alleviating stroke-induced brain infarction” (Eur J Med Chem, 2021) are described below.

Data set [1] is described as follows: in vivo. Particulars: C57, mouse, brain/plasma, ip, 20 mg/kg.
Data set [2] is described as follows: in vivo. Particulars: C57, mouse, brain/plasma, ip, 20 mg/kg. The source holds these as a separate data set.
A short description of data set [3]: in vivo. The following applies: C57BL/6, mouse, brain/plasma, ip, 20 mg/kg.

The Kp is the ratio of the level in a tissue or fluid to that in plasma or blood. `O=C(NO)c1ccc(CN2CCCc3cc(Cl)ccc32)cc1`: in “in vivo [1]”, the partition ratio (Kp) at 4 h is 3.28. In “in vivo [2]”, the Kp at 1 h amounted to 1.89. This compound gave a Kp in the data set “in vivo [3]” of 2.54.
